Assay results published in patent US20100041596A1 (published 2010).

Target: T1, etanercept (UniProt P20333 23-257, limits assumed)
T1 construct: extracellular domain; Bought drug; also called Enbrel; TNFR II immunoglobulin Fc fusion protein; not shown: immunoglobulin Fc
T1 sequence (looked up): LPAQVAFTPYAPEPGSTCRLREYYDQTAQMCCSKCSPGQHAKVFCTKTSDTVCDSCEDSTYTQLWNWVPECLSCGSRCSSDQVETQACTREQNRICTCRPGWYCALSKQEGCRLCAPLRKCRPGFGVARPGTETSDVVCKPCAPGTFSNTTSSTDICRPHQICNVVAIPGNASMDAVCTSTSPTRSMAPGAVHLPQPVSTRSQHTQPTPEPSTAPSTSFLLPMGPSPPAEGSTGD
Test: immunoprecipitation and Western blot of mixed proteins

B1: P80 PLAD-GST fusion protein (other)
chain: MSPILGYWKIKGLVQPTRLLLEYLEEKYEEHLYERDEGDKWRNKKFELGLEFPNLPYYIDGDVKLTQSMAIIRYIADKHNMLGGCPKERAEISMLEGAVLDIRYGVSRIAYSKDFETLKVDFLSKLPEMLKMFEDRLCHKTYLNGDHVTHPDFMLYDALDVVLYMDPMCLDAFPKLVCFKKRIEAIPQIDKYLKSSKYIAWPLQGWQATFGGGDHPPKSDLVPRGSPEFYAPEPGSTCRLREYYDQTAQMCCSKCSPGQHAKVFCTKTSDTVCDEFPGRLERPHRD
notes: made in bacteria, 33 kD; also called P80 PLAD protein; P80-PLAD-GST protein
binding result: binds

B2: GST-only protein (other, UniProt P08515 1-218, looked up)
chain: MSPILGYWKIKGLVQPTRLLLEYLEEKYEEHLYERDEGDKWRNKKFELGLEFPNLPYYIDGDVKLTQSMAIIRYIADKHNMLGGCPKERAEISMLEGAVLDIRYGVSRIAYSKDFETLKVDFLSKLPEMLKMFEDRLCHKTYLNGDHVTHPDFMLYDALDVVLYMDPMCLDAFPKLVCFKKRIEAIPQIDKYLKSSKYIAWPLQGWQATFGGGDHPPK
notes: Control; also called GST alone protein
binding result: no binding
